## Measured affinities in a library of Ab-14 light chain variants

Source: Engelhart et al. 2022 (doi:10.1038/s41597-022-01779-4), MIT Lincoln Laboratory and A-Alpha Bio; data file from the FLAb repository.

Target peptide (SARS-CoV-2 spike, HR2 region): PDVDLGDISGINAS

The variants keep the heavy chain, the linker and the frameworks of Ab-14 (scFv order VH, a 15-residue (Gly4Ser)3 linker, VL).
VH: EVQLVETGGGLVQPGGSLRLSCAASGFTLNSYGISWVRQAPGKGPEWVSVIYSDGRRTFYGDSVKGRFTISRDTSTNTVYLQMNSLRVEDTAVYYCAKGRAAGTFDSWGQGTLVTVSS
VL: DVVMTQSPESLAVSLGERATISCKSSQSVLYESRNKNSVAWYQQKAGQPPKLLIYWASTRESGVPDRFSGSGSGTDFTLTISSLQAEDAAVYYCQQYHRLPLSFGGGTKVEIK

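In library AAYL50, one, two or three CDR residues were substituted; doubles and triples were drawn at random. The scFvs were displayed on barcoded MATa yeast, the peptide on MATalpha yeast. Pairs that bind mate more often; barcode pairs of the diploids are counted by sequencing. A regression on co-assayed BCL2-family reference pairs converts the normalised counts of each replicate to an apparent Kd. The assay was run in three technical replicates.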

Each variant is given by its three light chain CDRs, as the data file delimits them; those of the parent are KSSQSVLYESRNKNSVA, WASTRES, QQYHRLPLS.
Every variant below is changed at Y31 of the VL (sequential numbering).
Scale: log10 of Kd in nM, estimated from mating counts; low values are strong binders.
A pair that was not seen in that replicate is written "nd"; this usually means weak binding, but a binder can also be missed.
Parent in this assay: reference entry 0.65, copy in this library 1.68.

The variant KSSQSVLSESRNFNSVA, WASTRES, QQYHRWPLS showed 3.19, 2.98, 2.87 (controls 2 of 9).
The variant KSSQSVLRESRNKNSVA, WASAREV, QQYHRLPLS showed 1.45, 2.70, 1.47 (controls 0 of 9).
The variant KSSQSVLQESKNKNSVA, WASTRDS, QQYHRLPLS showed 0.82, 0.66, 0.78 (controls 2 of 9).
The variant KSSQSVLFESRNKNNVA, WASTREM, QQYHRLPLS showed 1.07, 1.07, 1.21 (controls 1 of 9).
The variant KSSQSVLKESRNKNSVA, WQSTRES, QLYHRLPLS showed 3.82, nd, 2.44 (controls 1 of 9).
The variant KSSGSVLQESRNKNSVA, WASTRES, QQYHRLPQS showed 0.59, 0.65, 0.74 (controls 0 of 9).
The variant KWSQSSLNESRNKNSVA, WASTRES, QQYHRLPLS showed 1.38, 1.55, 1.64 (controls 5 of 9).
The variant KSSQSHLIESRNKNSVA, WASTRET, QQYHRLPLS showed 3.01, 2.56, 2.41 (controls 2 of 9).
The variant KSSQSVLTESLNKQSVA, WASTRES, QQYHRLPLS showed 0.56, 0.79, 0.66 (controls 4 of 9).
The variant KPSQSVLKESRNYNSVA, WASTRES, QQYHRLPLS showed 2.10, 1.61, 2.13 (controls 1 of 9).
The variant KSSQSVLMESRNKNSVA, WEYTRES, QQYHRLPLS showed 4.31, nd, 3.01 (controls 0 of 9).
The variant KSSQSVLKESRNKNSVA, WASTRES, QSMHRLPLS showed nd, 4.52, nd (controls 2 of 9).
The variant KSSQSVLPVSRNKNSVA, WASTRES, QQYHCLPLS showed 3.02, 4.62, nd (controls 1 of 9).
The variant KSSQSVLQESRNKVNVA, WASTRES, QQYHRLPLS showed 2.06, 2.38, 2.35 (controls 4 of 9).
The variant KSSQSVLMESRNDFSVA, WASTRES, QQYHRLPLS showed 0.55, 0.71, 0.45 (controls 0 of 9).
The variant KSSQLVLDESRNKNSVA, WASTRWS, QQYHRLPLS showed 1.31, 1.43, 1.29 (controls 5 of 9).
The variant KSSQSVLEESRNKNSVA, KASYRES, QQYHRLPLS showed nd, 4.16, nd (controls 0 of 9).
The variant KSSQSVLNESRNKNSVA, WAVTRES, QQYHRLPLS showed 1.22, 1.20, 1.11 (controls 0 of 9).
The variant KSKQSVLLESWNKNSVA, WASTRES, QQYHRLPLS showed 1.60, 1.56, 1.64 (controls 6 of 9).
The variant KSSQSVLLESRNKNDVA, WASTRES, QMYHRLPLS showed 1.00, 1.14, 1.32 (controls 6 of 9).
The variant KTSQSVLSISRNKNSVA, WASTRES, QQYHRLPLS showed 1.29, 1.61, 1.16 (controls 1 of 9).
The variant GSSQSVLIESRNKQSVA, WASTRES, QQYHRLPLS showed 1.88, 1.91, 2.16 (controls 0 of 9).
The variant KSSQSVLFESRNKNSVA, RASTRES, QQYHRLDLS showed nd, nd, nd (controls 0 of 9).
The variant KSSQSVLTEDRNKNSVA, WASTRES, SQYHRLPLS showed 0.91, 1.02, 0.99 (controls 8 of 9).
The variant KSRQSVLRESRNKNSVA, WASTRES, QQYHRLMLS showed nd, nd, 3.59 (controls 0 of 9).
The variant KSSQDVLKESRNKNSVA, WASTRES, QQYPRLPLS showed 0.92, 1.15, 1.33 (controls 0 of 9).
The variant KSSQSVLTESRNKNSVA, WASTRES, QQYHRLWLS showed 0.27, 0.50, 0.44 (controls 0 of 9).
The variant KSSQSVLTESRNKNSVA, NASTRHS, QQYHRLPLS showed nd, 3.80, nd (controls 1 of 9).
The variant KSSQWVLQESRNKNSVA, WASTRES, QQYHRLPLS showed 0.74, 1.01, 0.90 (controls 1 of 9).
The variant KSFQSVLPESRPKNSVA, WASTRES, QQYHRLPLS showed 1.96, 1.88, 1.97 (controls 5 of 9).

As a blank, each scFv also met three strains without target: over library AAYL50, 18% of these pairings were detected, typically at 4.19 and seldom below 2.99. For each scFv, signals with the empty controls are counted beside the result.